Patent US20050123477A1, “Benzothiazole derivatives for in vivo imaging of amloid plaques” (priority 2002, published 2005)

Conditions: rat, in vivo

^14C-Butanol
Ratio of VD supernatant/pellet: 51.0
